Columns and labels:
[1] = target: R132H-IDH1 in MUM2C cells (Homo sapiens, UniProt O75874, R132H); settings: 50 μM, 2 h in situ, assayed ex situ
IDH1 C269 = IDH1 C269 (Homo sapiens, UniProt O75874, R132H); test: Competitive isoTOP-ABPP in situ, R132H-IDH1-expressing MUM2C cells; settings: 50 μM, 2 h
IDH1 = target: T1, IDH1 (Homo sapiens, UniProt O75874, C269S); test: IDH1 NADP assay; format: biochemical
T1 construct: Full length cDNAs encoding for IDH1 (Open Biosystems, Clone ID: 3880331) and IMPDH2; His6 (C); made in house; host or cells: E. coli BL21(DE3)
Procedure: To 25 μL of this mixture was added 1 μL of the indicated compound (25× stock solution in DMSO) and the lysates were incubated for 1 h at room temperature in clear 96 well plates (Corning® Costar®). […] Absorbance was measured for 45 minutes and the relative activities were calculated from the change in absorbance for the linear portion of the curve.

By UniProt entry, the sequences of proteins in these tests, tags left out. Residues count along the entry.
UniProt O75874, whole entry R132H: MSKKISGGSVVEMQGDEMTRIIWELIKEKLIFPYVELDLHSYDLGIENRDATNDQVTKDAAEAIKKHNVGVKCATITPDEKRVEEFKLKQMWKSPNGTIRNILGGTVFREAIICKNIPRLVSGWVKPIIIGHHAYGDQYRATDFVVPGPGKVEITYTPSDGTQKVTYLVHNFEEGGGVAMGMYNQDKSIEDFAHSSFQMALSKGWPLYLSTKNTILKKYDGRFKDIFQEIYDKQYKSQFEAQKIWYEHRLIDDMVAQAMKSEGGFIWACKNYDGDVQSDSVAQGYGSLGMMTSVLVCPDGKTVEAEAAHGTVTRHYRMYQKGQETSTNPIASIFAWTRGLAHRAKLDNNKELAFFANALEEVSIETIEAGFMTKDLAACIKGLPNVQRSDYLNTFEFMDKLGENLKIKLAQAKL
UniProt O75874, 2-414 R132H: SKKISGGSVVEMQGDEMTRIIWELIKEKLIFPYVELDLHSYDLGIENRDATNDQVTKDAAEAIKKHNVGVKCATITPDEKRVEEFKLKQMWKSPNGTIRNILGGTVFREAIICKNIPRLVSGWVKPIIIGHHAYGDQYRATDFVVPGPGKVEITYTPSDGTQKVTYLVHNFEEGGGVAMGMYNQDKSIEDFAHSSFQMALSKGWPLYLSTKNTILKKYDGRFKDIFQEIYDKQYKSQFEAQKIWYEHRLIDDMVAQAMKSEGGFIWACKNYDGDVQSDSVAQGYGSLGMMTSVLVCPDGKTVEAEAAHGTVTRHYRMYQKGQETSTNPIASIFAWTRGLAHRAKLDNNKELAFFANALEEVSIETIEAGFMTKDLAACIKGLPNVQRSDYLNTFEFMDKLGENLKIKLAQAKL
UniProt O75874, whole entry C269S: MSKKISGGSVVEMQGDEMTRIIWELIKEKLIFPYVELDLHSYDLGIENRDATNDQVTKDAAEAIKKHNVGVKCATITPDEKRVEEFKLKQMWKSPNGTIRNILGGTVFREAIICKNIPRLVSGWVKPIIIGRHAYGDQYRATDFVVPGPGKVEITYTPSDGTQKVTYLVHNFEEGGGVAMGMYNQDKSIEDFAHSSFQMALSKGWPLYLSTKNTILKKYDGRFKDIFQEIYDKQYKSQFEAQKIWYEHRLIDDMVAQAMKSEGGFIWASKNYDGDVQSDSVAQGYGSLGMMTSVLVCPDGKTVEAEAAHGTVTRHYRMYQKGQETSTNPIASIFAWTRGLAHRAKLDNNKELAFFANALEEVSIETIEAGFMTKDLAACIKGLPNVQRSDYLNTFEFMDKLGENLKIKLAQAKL

2-HG production by R132H cell lysates [1] | Structure (SMILES) | IA-alkyne labeling of C269 of IDH1 in situ (IDH1 C269) | catalytic activity of C269S-IDH1 mutant (IDH1)
slight decrease | COc1ccc2c(c1)CCCN2C(=O)CCl [compound 2] | but not | –
– | O=C(CCl)N1CCC(C(O)(c2ccccc2)c2ccccc2)CC1 [compound 20] | inhibited | did not inhibit
